Test system: melanoma B16
Assay: Tumor inhibitory effect in subcutaneous melanoma B16 model of C57BL/6 mouse
Type: in vivo
Conditions: for Tumor volume: 1 mg/Kg IV, rhIL-2 once a day for 5 days, PEG-rhIL-2 injected once
From the text: PEG and rIL-2 were coupled under the reaction conditions of the reaction group 3 in Example 8. The coupled mixtures were purified by ion exchange chromatography, and a PEG-rIL-2 conjugate was separated for a pharmacodynamic experiment. A subcutaneous melanoma B16 model of a C57BL/6 mouse was used to evaluate a tumor inhibitory effect of an mPEG-L5-rhIL-2 conjugate (hereinafter referred to as PEG-rhIL-2). An experimental process is as follows: 10^6 B16 cells were implanted in a middle of a back of each C57BL/6 mouse of 5 to 6 weeks old. After the tumor grows to a measurable size, the experimental mice were randomly grouped with each group including 6 mice, and test compounds rhIL-2, PEG-rhIL-2 and solvent control were applied to the mice in different dose concentrations and dose schemes. Body weight and tumor volume were measured every other day.

Substance | Increase of anti-tumor effect compared with unmodified rhIL-2 group (9th day of administration) | Tumor volume (day 1) | Tumor volume (day 3) | Tumor volume (day 5) | Tumor volume (day 7) | Tumor volume (day 9)
PEG-rhIL-2 | 27% | 104 mm3 | 147 mm3 | 225 mm3 | 280 mm3 | 310 mm3
rhIL-2: recombinant human interleukin 2, unmodified | – | 102 mm3 | 180 mm3 | 260 mm3 | 470 mm3 | 650 mm3

From US11857635B2, “Linker compound, polyethylene glycol-linker conjugate and derivative thereof and polyethylene glycol-linker-drug conjugate” (JENKEM TECHNOLOGY CO., LTD. (TIANJIN), priority 2017, dated 2024)
